In test [1] the target is TGF-β1.
Test [2] addresses TGF-β1. This is another data set of the same source.

Chains of the proteins cited; added tags and fusions are not shown. Residues count along the entry.
UniProt P37173, 23-166, stated change not applied: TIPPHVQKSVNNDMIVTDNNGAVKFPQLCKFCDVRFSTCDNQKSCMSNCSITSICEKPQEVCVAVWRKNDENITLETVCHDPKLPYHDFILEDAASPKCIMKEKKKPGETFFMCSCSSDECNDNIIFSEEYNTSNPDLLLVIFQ

As to “T2m-hIgG2Fc(CCCC)ΔK (from UniProt P37173 23-166) (Fc fusion)”, the IC50 (nM) of neutralization of TGF-β1 (10 pM), A549 IL-11 release assay in test [1] came out at 2.5 nM.

Take “hIgG1Fc(CC)ΔK-T2m (from UniProt P37173 23-166) (Fc fusion)”: in test [2], the IC50 (nM) of neutralization of TGF-β1 (10 pM), A549 IL-11 release assay (experiment of Figure 4B) was determined as 0.0029 nM. The substance also yielded an IC50 (nM) of neutralization of TGF-β1 (10 pM), A549 IL-11 release assay in test [1] of 0.0229 nM.
